Consider 1 compound from ChEMBL document CHEMBL1795327, “Novel 4-phenylpiperidine-2,6-dione derivatives. Ligands for α₁-adrenoceptor subtypes” (Eur J Med Chem, 2011).

The experiment has as its target T1, Alpha-1A adrenergic receptor (Homo sapiens, UniProt P35348).
T1 sequence (P35348 whole entry): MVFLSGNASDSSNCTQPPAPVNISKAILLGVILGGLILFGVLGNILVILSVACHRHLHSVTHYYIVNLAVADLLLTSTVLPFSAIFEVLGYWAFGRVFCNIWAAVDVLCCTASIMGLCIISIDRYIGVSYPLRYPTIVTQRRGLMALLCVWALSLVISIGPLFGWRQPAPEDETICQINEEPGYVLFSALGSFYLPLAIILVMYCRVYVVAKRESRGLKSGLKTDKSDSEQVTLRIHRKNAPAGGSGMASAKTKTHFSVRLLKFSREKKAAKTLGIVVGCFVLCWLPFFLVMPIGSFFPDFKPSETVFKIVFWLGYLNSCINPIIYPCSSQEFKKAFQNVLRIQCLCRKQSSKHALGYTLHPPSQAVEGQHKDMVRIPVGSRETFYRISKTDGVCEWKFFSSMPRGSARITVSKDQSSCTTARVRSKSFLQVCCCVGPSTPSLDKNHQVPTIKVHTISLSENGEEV
Nature of the experiment: Binding affinity to adrenergic alpha1A receptor.

For `COc1ccccc1N1CCN(CCN2C(=O)CC3(CCCC3)CC2=O)CC1`, the affinity corresponds to a Ki of 42.7 nM.

A word on the Ki: it is the dissociation constant of the complex between target and ligand, obtained from inhibition or displacement. Lower therefore signals a stronger hold on the target.
